Tested on: PΔ6 (efflux knockout strain of PA)
Experiment: Antimicrobial susceptibility, broth microdilution MIC
Type: cell-based, Pseudomonas aeruginosa
Conditions: >85% reduction in growth at OD 590 nm; n = 3
Experimental: Pseudomonas aeruginosa (ATCC 9027), Drug-Resistant Pseudomonas aeruginosa from ATCC Panel MP-23 (BAA-2108, BAA-2109, BAA-2110), and Pseudomonas aeruginosa efflux knockout GKCW120 (PD6)14 provided by Zgurskaya and co-workers at the University of Oklahoma.
Antimicrobial Susceptibility Assay Procedure. Susceptibility testing was performed in biological triplicate, using the broth microdilution method as outlined by the Clinical and Laboratory Standards Institute. Briefly, minimum inhibitory concentrations (MIC) determinations were carried out in 96-well microtiter plates with 2-fold serial dilutions of the compounds from 0 […]
Briefly, to each well 1 µL of compound in DMSO, 89 µL of TSB, and 10 µL of bacterial inoculum, grown from frozen stock in 10 mL of TSB […]
for 4-6 hours, were added. […]
on a Biotek Synergy HTX Multi-mode plate reader. Data was processed by background subtracting the media absorbance and then normalizing the data to full bacterial growth with only vehicle.
MIC is defined as the lowest concentration of antibiotic or antibiotic/adjuvant combination that achieves ≥ 85% growth inhibition, which corresponds to no visible growth. […]

c1ccc(CSc2nc3ccccc3cc2CNCCc2cnc[nH]2)cc1 [Compound 22]
MIC PΔ6: displayed antibacterial activity
